Species on record: Mus musculus
Test: Protective index, ratio of TD50 for CF-1 albino mouse to ED50 for CF-1 albino mouse assessed as protection from 6 Hz psychomotor seizure
Type: functional
Summary of the method: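 6-Hz test (32 mA, 0.2 ms pulses at 6 Hz for 3 s, corneal) in male CF-1 mice dosed ip. Quantified at the time of peak effect in groups of eight across at least three doses giving 10–90% effect. ED50 and TD50 (minimal neurological toxicity) obtained by regression; PI = TD50/ED50.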

CC[C@@H](C(N)=O)N1CCCC1=O [LEVETIRACETAM]
Ratio TD50/ED50: >26

Reference: ChEMBL document CHEMBL2086314, “Synthesis and anticonvulsant activity of new N-Mannich bases derived from 3-(2-fluorophenyl)- and 3-(2-bromophenyl)-pyrrolidine-2,5-diones. Part II” (Bioorg Med Chem, 2012)
